In the assay the target is Carbonic anhydrase (Saccharomyces cerevisiae S288c, UniProt P53615). Briefly: Inhibition of Saccharomyces cerevisiae carbonic anhydrase overexpressed in Escherichia coli BL21 (DE3) by CO2 hydration stopped-flow assay.

Sequences of proteins named here, by UniProt entry; tags and fusion partners are left off. A change or cut given only in a name is not applied to a line headed by its entry.
UniProt P53615: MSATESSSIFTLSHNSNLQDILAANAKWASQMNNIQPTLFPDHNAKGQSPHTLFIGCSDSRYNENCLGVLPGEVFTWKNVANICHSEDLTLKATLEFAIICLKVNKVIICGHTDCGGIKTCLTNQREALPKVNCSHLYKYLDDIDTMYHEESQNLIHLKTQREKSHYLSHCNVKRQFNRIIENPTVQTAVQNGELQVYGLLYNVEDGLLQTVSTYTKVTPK

SMILES strings stand for the structures.

For the compound `O=[As](O)(O)c1ccccc1`, the Ki worked out at 40 µM.
